Reference: publication PMC6235002, “Born to sense: biophysical analyses of the oxygen sensing prolyl hydroxylase from the simplest animal Trichoplax adhaerens” (Hypoxia, 2018)

Protein sequences, listed by entry. Tags and fused reporters are not part of them. Residues count along the entry.
UniProt Q9GZT9, 181-426: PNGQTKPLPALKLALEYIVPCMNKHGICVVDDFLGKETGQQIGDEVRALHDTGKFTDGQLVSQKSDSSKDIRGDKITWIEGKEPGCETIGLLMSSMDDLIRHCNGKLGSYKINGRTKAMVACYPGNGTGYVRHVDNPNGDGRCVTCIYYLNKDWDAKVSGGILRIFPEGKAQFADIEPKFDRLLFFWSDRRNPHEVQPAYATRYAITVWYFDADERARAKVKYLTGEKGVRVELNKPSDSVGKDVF
UniProt I6QVT6, entry or part of it: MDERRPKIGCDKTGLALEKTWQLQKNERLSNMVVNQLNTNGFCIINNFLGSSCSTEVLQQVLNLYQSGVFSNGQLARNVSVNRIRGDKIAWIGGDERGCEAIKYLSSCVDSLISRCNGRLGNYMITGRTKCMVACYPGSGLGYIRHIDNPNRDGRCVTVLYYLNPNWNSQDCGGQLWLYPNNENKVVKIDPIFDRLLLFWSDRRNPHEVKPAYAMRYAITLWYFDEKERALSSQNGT

What was measured:
HsPHD2^181-426 = HsPHD2^181-426 (Homo sapiens, UniProt Q9GZT9); settings: HsPHD2, no substrate; 20 µM enzyme, 125 µM Fe(II), 1 mM ascorbate, 400 µM 2OG, 50 mM Tris-D11 pH 7.5, 10% D2O/90% H2O; ^1H NMR
Protocol: Notes: (A) Sequence alignment of TaHIFa, HsHIFa, and substrates of PHD-like enzymes in Dictyostelium discoideum (DdSkp1) and Pseudomonas putida (PpEF-Tu). […] Peptide hydroxylation was analyzed by MALDI-MS; the apparent non-enzymatic Met oxidation was subtracted. Data were fitted with the Michaelis-Menten equation using GraphPad Prism® (errors are indicated as standard deviations, n=3).

TaPHD^64-300 = TaPHD^64-300 (Trichoplax adhaerens, UniProt I6QVT6); settings: no substrate, 20 µM enzyme, 125 µM Fe(II), 1 mM ascorbate, 400 µM 2OG, 50 mM Tris-D11 pH 7.5, 10% D2O/90% H2O, ^1H NMR
TaPHD = settings: cited from earlier work

**Q.** With `O=C(O)CCC(=O)C(=O)O` [2OG, 2-oxoglutarate] as the compound, how does the “rate of uncoupled 2OG turnover” value (HsPHD2^181-426) read?
**A.** The value was “very low”.

**Q.** What about the “rate of uncoupled 2OG turnover” value (TaPHD^64-300) of the same compound?
**A.** The value was “very low”.

**Q.** And the “half-life of TaPHD.Fe.2OG complex” value (TaPHD)?
**A.** The value was > 24 h.
